Antibody variant affinities, Ab-91 heavy chain, assay 2

Reference: Engelhart et al. 2022, doi:10.1038/s41597-022-01779-4. File: FLAb, binding data.

Antigen: PDVDLGDISGINAS, a 14-residue peptide of the SARS-CoV-2 spike HR2 region.

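Phage display of a naive human antibody library on the peptide gave the parent. Library AAYL51 holds single substitutions and randomly drawn double and triple substitutions in the CDRs. AlphaSeq pools MATa yeast showing the antibodies with MATalpha yeast showing the peptide. Mating (16 h, 30 °C) was followed by selection of diploids and sequencing of their barcodes. The ratio of observed to expected reads was calibrated, replicate by replicate, on BCL2-family standards whose Kd was known from biolayer interferometry. Each pool was mated in three replicate cultures.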

Ab-91 is the parent antibody, in scFv form: VL, then a 15-residue (Gly4Ser)3 linker, then VH. The light chain is unchanged in all variants.
VL: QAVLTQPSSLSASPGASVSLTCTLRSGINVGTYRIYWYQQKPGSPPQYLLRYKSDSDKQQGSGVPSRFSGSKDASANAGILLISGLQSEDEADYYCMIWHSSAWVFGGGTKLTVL
VH: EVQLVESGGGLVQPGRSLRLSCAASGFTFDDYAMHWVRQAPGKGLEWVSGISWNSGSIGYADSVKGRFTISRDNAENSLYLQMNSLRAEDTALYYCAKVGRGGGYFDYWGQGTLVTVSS

Each variant's VH is given in full.
Numbers give log10(Kd / nM), so 0 is 1 nM and 3 is 1 µM. Smaller is tighter.
A mean of the replicates is given; it leaves out those without a signal.
"ND" means that the variant was in the library but no mating with the target was seen in that replicate; the authors take this as a sign of poor binding, and no number exists.

VH,log10 Kd (nM) by replicate,"mean, log10 nM",signal with controls
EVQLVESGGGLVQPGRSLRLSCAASGFTFDDYAMIWVRQAPGKGLEWVSSISENSGSIGYADSVKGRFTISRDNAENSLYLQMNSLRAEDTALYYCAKVGRGGGYFDYWGQGTLVTVSS,4.65 5.15 4.49,4.76,6 of 9 (4.57)
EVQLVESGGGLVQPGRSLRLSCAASGFTDDDYAMHWVRQAPGKGLEWVSGISWNSGSIGYADSVKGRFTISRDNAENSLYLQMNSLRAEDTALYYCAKVGRGGGYVDYWGQGTLVTVSS,ND ND ND,ND,0 of 9
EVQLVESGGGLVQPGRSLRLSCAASGFTFDDYAMHWVRQAPGKGLEWVSGQSWNHGSIGYVDSVKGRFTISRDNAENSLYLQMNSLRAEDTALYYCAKVGRGGGYFDYWGQGTLVTVSS,5.29 ND 1.92,3.60,0 of 9
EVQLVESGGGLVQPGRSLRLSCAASGFTFDDYAMHWVRQAPGKGLEWVSGISWNSGSIGYADSCKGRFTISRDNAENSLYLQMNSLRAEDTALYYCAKVRRGGGYFAYWGQGTLVTVSS,ND 5.73 ND,5.73,3 of 9 (5.12)
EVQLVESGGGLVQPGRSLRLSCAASGFYFDAYAMHWVRQAPGKGLEWVSGISWNSGSIGYADSVKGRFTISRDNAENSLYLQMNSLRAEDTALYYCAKVGRGGGYFDEWGQGTLVTVSS,2.49 2.28 1.97,2.25,0 of 9
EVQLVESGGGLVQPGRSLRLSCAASGFTGCDYAMHWVRQAPGKGLEWVSGISWNSGSIGYADSVKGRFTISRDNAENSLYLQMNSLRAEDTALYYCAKVGRGGGYFLYWGQGTLVTVSS,5.02 ND ND,5.02,0 of 9
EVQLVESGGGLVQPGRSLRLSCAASGFTFDDYAMHWVRQAPGKGLEWVSGISWGSGSLGYADSVKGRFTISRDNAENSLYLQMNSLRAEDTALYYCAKVGRGGGYEDYWGQGTLVTVSS,4.49 5.41 5.84,5.25,9 of 9 (4.83)
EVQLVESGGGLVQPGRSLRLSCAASGFTFDSYAMHWVRQAPGKGLEWVSGISWNSQSIGYADWVKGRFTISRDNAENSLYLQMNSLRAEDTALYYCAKVGRGGGYFDYWGQGTLVTVSS,0.40 0.45 -0.40,0.15,6 of 9 (4.93)
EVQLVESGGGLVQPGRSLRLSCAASGFTFDDYAMHWVRQAPGKGLEWVSWISWNSGSIVYADSVKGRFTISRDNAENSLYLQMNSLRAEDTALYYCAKVGRGEGYFDYWGQGTLVTVSS,5.03 6.07 5.06,5.39,3 of 9 (4.60)
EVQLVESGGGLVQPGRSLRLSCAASGFEFDDYAMHWVRQAPGKGLEWVSGISWNSSSIGYADSVKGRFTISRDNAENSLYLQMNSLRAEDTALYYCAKVGRGGAYFDYWGQGTLVTVSS,ND ND 3.51,3.51,0 of 9
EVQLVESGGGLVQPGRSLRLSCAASGFTFDDYAMHWVRQAPGKGLEWVSGITWNSGIIIYADSVKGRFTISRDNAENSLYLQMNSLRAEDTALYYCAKVGRGGGYFDYWGQGTLVTVSS,ND ND ND,ND,1 of 9 (3.57)
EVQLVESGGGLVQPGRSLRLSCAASGFTFDDYAMHWVRQAPGKGLEWVSGISWNSGSPGYAHSVKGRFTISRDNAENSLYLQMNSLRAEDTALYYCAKVGRGGMYFDYWGQGTLVTVSS,5.00 5.03 ND,5.02,3 of 9 (4.58)
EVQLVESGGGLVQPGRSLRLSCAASGFVFDSYAMHWVRQAPGKGLEWVSGISWNLGSIGYADSVKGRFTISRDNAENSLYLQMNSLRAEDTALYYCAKVGRGGGYFDYWGQGTLVTVSS,ND ND ND,ND,0 of 9
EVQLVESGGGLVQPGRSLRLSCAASGFTFDDYAMDWVRQAPGKGLEWVSGISWQSGSIGYADSVKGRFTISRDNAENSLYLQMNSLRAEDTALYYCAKVGRGGGYRDYWGQGTLVTVSS,ND ND ND,ND,1 of 9 (2.66)
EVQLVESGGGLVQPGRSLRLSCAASGFTFDDYAMHWVRQAPGKGLEWVSGISWNSNSIGYADSVKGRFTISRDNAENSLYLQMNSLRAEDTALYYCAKVGRGGGYFDYWGQGTLVTVSS,ND ND ND,ND,0 of 9
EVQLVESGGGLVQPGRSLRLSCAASGFTFDDYAMHWVRQAPGKGLEWVSGISWNSGSIGYADSVKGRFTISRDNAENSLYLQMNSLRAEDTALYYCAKVGRPGEYSDYWGQGTLVTVSS,ND ND ND,ND,0 of 9
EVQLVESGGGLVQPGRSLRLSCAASGFTFLDYAMHWVRQAPGKGLEWVSGISWNSGWIGYADSVKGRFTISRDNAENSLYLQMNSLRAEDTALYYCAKVGRGPGYFDYWGQGTLVTVSS,5.24 5.54 5.03,5.27,4 of 9 (4.37)
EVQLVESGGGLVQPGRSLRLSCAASGFTFDDYAMHWVRQAPGKGLEWVSGMSWNKGSIGYADSVKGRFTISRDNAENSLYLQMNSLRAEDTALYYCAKVGRAGGYFDYWGQGTLVTVSS,ND 4.46 ND,4.46,1 of 9 (3.27)

Top 2 of the variants detected in all replicates, tightest first:

VH	log10 Kd (nM) by replicate	mean, log10 nM	signal with controls
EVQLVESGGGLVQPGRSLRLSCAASGFTFDSYAMHWVRQAPGKGLEWVSGISWNSQSIGYADWVKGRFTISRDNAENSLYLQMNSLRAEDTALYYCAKVGRGGGYFDYWGQGTLVTVSS	0.40 0.45 -0.40	0.15	6 of 9 (4.93)
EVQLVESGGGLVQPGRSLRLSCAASGFYFDAYAMHWVRQAPGKGLEWVSGISWNSGSIGYADSVKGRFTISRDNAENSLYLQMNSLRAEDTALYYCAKVGRGGGYFDEWGQGTLVTVSS	2.49 2.28 1.97	2.25	0 of 9

Nonspecific signal, from three strains lacking the peptide, appeared in 21% of pairings of library AAYL51, centred on 4.54 (5% of these signals below 3.26); values are not corrected for it. Also given: how often the same scFv was detected with the empty control strains, with their mean in brackets.
In this assay the parent's reference entry averaged 1.86; its copy inside this library read 0.88.